Values quoted from earlier work in patent publication US9517934B2, “Process for the generation of chlorine dioxide” (The United States of America as Represented by the …, priority 2013, dated 2016).

Conditions: vide Horváth et al.; cited from earlier work

For chlorous acid, the “acid dissociation constant Ka” value is given as “≈ 1×10^−2 M” and the “pKa (−log Ka)” value is given as “≈ 2”.
